In general, Km refers to the substrate concentration at which the rate is half of its maximum. The term kcat denotes the maximal rate divided by the concentration of active sites. By kcat/Km is commonly meant the second-order rate constant that governs catalysis at low substrate concentration.

In this series the test system is Cellobiose. The series is described as follows: purified protein, by the assay type. To be noted: apparent, substance is the substrate, pH 5.25, 30.0 °C.

As to “HvExoI W286Y mutant (Hordeum vulgare subsp. vulgare; W311Y)”, under “other: W286Y”, the Km came out at 1400 ± 100 µM, the kcat is 4.5 ± 0.3 s⁻¹ and the catalytic efficiency (kcat/Km) amounted to 3200 ± 400 M⁻¹ s⁻¹.

Take “WT HvExoI (Hordeum vulgare subsp. vulgare)”: under “other: WT”, the Michaelis-Menten constant (Km) came to 1200 ± 100 µM, the turnover number (kcat) was found to be 4.4 ± 0.1 s⁻¹ and the kcat/Km turned out to be 3700 ± 200 M⁻¹ s⁻¹.

On to “HvExoI W434H mutant (Hordeum vulgare subsp. vulgare; W459H)”, for which, for the setting “other: W434H”, the Km was found to be 2800 ± 100 µM, the kcat came to 1.2 ± 0.1 s⁻¹ and the specificity constant (kcat/Km) amounted to 400 ± 10 M⁻¹ s⁻¹.

Consider “HvExoI W434F mutant (Hordeum vulgare subsp. vulgare; W459F)”, for which, for the setting “other: W434F”, the Km turned out to be 1200 ± 200 µM, the kcat stood at 0.6 ± 0.03 s⁻¹ and the kcat/Km was 500 ± 20 M⁻¹ s⁻¹.

On to “HvExoI W286F/W434F mutant (Hordeum vulgare subsp. vulgare; W311F/W459F)”, for which, for the setting “other: W286F/W434F”, the Km is 1500 ± 300 µM, the catalytic constant (kcat) turned out to be 0.02 ± 0.001 s⁻¹ and the kcat/Km stood at 10 ± 1 M⁻¹ s⁻¹.

(Values after PMC9508125, “The evolutionary advantage of an aromatic clamp in plant family 3 glycoside exo-hydrolases” (Nature Communications, 2022).)
